From paper PMC9471048

Amino acid sequences for entries named in this document (tags omitted).
UniProt P08588, whole entry: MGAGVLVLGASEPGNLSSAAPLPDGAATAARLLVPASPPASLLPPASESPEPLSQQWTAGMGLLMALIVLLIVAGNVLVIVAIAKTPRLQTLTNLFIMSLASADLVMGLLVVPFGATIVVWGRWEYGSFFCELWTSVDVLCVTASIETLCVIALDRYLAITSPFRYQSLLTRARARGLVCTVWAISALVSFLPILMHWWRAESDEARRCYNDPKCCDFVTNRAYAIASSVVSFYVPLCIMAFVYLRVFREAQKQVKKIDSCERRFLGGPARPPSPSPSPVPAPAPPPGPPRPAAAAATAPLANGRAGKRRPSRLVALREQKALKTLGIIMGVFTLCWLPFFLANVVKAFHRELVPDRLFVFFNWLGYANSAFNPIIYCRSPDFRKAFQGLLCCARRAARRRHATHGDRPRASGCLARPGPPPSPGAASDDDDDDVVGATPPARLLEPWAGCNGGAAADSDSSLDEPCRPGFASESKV
UniProt P07550, whole entry: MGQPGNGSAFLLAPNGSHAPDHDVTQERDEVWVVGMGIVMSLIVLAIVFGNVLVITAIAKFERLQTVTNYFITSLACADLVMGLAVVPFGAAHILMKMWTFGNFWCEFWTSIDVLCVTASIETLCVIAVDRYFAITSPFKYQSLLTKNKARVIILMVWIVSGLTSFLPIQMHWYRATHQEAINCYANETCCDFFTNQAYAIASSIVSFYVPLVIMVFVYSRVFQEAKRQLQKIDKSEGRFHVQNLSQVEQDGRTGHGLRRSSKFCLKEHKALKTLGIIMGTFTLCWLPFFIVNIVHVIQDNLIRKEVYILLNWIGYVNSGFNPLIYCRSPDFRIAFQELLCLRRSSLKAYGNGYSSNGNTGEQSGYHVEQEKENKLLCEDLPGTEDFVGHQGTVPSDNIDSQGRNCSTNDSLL
UniProt P08913, whole entry: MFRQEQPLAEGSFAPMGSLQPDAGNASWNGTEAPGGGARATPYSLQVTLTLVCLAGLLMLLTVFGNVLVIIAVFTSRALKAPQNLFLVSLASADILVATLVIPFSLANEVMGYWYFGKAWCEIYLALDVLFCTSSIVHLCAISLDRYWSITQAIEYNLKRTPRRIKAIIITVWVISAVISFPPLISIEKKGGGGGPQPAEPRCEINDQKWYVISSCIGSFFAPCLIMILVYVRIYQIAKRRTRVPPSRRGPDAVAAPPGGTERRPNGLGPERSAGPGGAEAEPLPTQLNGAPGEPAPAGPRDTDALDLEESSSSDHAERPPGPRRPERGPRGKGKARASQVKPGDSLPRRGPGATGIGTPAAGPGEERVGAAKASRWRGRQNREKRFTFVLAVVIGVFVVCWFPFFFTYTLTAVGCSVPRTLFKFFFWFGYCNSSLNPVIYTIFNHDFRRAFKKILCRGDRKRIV
UniProt P18089, whole entry: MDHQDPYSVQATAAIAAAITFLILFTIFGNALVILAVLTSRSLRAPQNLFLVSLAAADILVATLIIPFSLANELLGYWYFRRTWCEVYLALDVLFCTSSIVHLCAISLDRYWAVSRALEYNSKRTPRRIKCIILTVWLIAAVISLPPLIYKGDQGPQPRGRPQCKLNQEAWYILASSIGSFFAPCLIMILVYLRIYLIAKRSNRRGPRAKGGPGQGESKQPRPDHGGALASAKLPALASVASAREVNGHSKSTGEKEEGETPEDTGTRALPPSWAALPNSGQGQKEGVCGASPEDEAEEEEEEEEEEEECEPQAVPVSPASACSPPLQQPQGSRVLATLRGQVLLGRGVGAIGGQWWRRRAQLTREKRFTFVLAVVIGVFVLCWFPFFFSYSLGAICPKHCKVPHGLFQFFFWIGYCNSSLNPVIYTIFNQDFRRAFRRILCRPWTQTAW

Experiments:
human β1‐adrenoceptor [1] = molecular target: T1, human β1‐adrenoceptor (Homo sapiens, UniProt P08588); experiment: CRE-SPAP production in CHO-β1 cells; conditions: for Log EC50 / Log IC50: CRE-SPAP; for Log EC50: log values; for Log IC50: with 3 µM forskolin (inhibitory response)
human β2‐adrenoceptor [2] = molecular target: T2, human β2‐adrenoceptor (Homo sapiens, UniProt P07550); experiment: 3H-CGP12177 whole cell binding in CHO-β2 cells; conditions: for KD (log), 3H-CGP12177 whole cell binding CHO-β2: given as negative log KD, ep = early plateau
human β1‐adrenoceptor [3] = molecular target: T1, human β1‐adrenoceptor; experiment: 3H-CGP12177 whole cell binding in CHO-β1 cells; conditions: for KD (log), 3H-CGP12177 whole cell binding CHO-β1: given as negative log KD, app = apparent affinity
human β2‐adrenoceptor [4] = molecular target: T2, human β2‐adrenoceptor; experiment: CRE-SPAP production in CHO-β2 cells; conditions: for Log EC50 / Log IC50: CRE-SPAP; for Log EC50: log values; for Log IC50: with 3 µM forskolin (inhibitory response)
human α2A‐adrenoceptor [5] = molecular target: T3, human α2A‐adrenoceptor (Homo sapiens, UniProt P08913); experiment: 3H‐rauwolscine whole cell binding in CHO‐α2A cells; conditions: read-out: IC50 in binding, CHO‐α2A, no KD obtained
human α2B‐adrenoceptor [6] = molecular target: T4, human α2B‐adrenoceptor (Homo sapiens, UniProt P18089); experiment: 3H‐rauwolscine whole cell binding in CHO‐α2B cells
human α2B‐adrenoceptor [7] = molecular target: T4, human α2B‐adrenoceptor; experiment: CRE‐SPAP gene transcription in CHO‐α2B cells
human α2A‐adrenoceptor [8] = molecular target: T3, human α2A‐adrenoceptor; experiment: CRE‐SPAP gene transcription in CHO‐α2A cells
[9] = no forskolin, top of curve not obtained, at maximum concentration 100µM
[10] = log of top concentration used, KD not calculable

Row | SMILES | Log EC50 (human β1‐adrenoceptor [1]; no forskolin) | Log IC50 (human β1‐adrenoceptor [1]) | KD (log), 3H-CGP12177 whole cell binding CHO-β2 (human β2‐adrenoceptor [2]) | KD (log), 3H-CGP12177 whole cell binding CHO-β1 (human β1‐adrenoceptor [3]) | Log EC50 (human β2‐adrenoceptor [4]; no forskolin) | Log IC50 (human β2‐adrenoceptor [4]) | also measured
1 | CCN1CCc2nc(N)oc2CC1 [BHT933] | No resp | No resp | no binding | no binding | No resp | No resp | –
2 | CS(=O)(=O)Nc1c(O)ccc2c1CCCC2C1=NCCN1 (stereo not drawn) [A61603] | – | No resp | no binding | no binding | – | No resp | IC50 (human α2A‐adrenoceptor [5]): 100 µM; % 10µM isop, response at the maximum concentration of agonist used (human β1‐adrenoceptor [1]; [9]): 9.4 ± 5.0%; IC50 (human α2B‐adrenoceptor [6]; read-out: IC50 (binding, KD not calculable), CHO‐α2B, top concentration used): > 100 µM; IC50 (human α2B‐adrenoceptor [6]; read-out: IC50 in binding, CHO‐α2B, no KD obtained): > 100 µM; Log IC50 (Gi), CRE‐SPAP (with forskolin) (human α2B‐adrenoceptor [7]; 3 μM forskolin): −7.83 ± 0.05; Log EC50 (Gs), CRE‐SPAP (with forskolin) (human α2B‐adrenoceptor [7]; 3 μM forskolin, stimulatory part of biphasic response): −6.77 ± 0.05; Log EC50 (Gs), CRE‐SPAP (without forskolin) (human α2B‐adrenoceptor [7]; absence of forskolin): −6.66 ± 0.03; Log efficacy ratio (KD/IC50) (human α2B‐adrenoceptor [7]; binding KD / Gi IC50 of CRE‐SPAP): >3.83; % 3 μM forskolin, CRE‐SPAP (without forskolin) (human α2B‐adrenoceptor [7]; maximum response compared to 3 μM forskolin): 185.2 ± 9.3%; Log EC50 (Gs), CRE‐SPAP (with forskolin) (human α2A‐adrenoceptor [8]; CHO‐α2A (cell line 1), 3 μM forskolin, stimulatory part of biphasic response): −5.66 ± 0.13; Log EC50 (Gs), CRE‐SPAP (without forskolin) (human α2A‐adrenoceptor [8]; CHO‐α2A (cell line 1), absence of forskolin): −5.48 ± 0.33; % 3 μM forskolin, CRE‐SPAP (without forskolin) (human α2A‐adrenoceptor [8]; CHO‐α2A (cell line 1), maximum response compared to 3 μM forskolin): 5.9 ± 2.2%; Log IC50 (Gi), CRE‐SPAP (with forskolin) (human α2A‐adrenoceptor [8]; CHO‐α2A (cell line 1, 5830 fmol/mg protein), 3 μM forskolin): −6.95 ± 0.06; Log efficacy ratio (KD/IC50) (human α2A‐adrenoceptor [8]; CHO‐α2A, binding KD / Gi IC50 of CRE‐SPAP): >2.95; % 10µM isop, response at the maximum concentration of agonist used (human β2‐adrenoceptor [4]; [9]): 48.4 ± 13.0%
3 | C1=C(c2cnc[nH]2)c2ccsc2CC1 [RWJ52353] | No resp | No resp | No binding | No binding | No resp | No resp | –
4 | C=CCN1CCc2nc(N)sc2CC1 [BHT920] | No resp | No resp | – | – | – | No resp | IC50 (log), 3H-CGP12177 whole cell binding CHO-β2 (human β2‐adrenoceptor [2]; [10]): IC50>-3; IC50 (log), 3H-CGP12177 whole cell binding CHO-β1 (human β1‐adrenoceptor [3]; [10]): IC50>-3
5 | CCc1cccc(CC)c1NC1=NCCN1 [ST‐91] | No resp | No resp | No binding | No binding | No resp | No resp | –

Like-named read-outs stand apart in the source and are kept apart here.
